The Ki is a dissociation constant, usually derived from enzyme kinetics or from competition with a known ligand. A high value points to a looser hold on the target.

The chains behind the UniProt entries cited, without tags or fusion partners. Where a name states a change or a piece, a line headed by the entry shows the natural chain unless it says otherwise.
UniProt P61169, whole entry: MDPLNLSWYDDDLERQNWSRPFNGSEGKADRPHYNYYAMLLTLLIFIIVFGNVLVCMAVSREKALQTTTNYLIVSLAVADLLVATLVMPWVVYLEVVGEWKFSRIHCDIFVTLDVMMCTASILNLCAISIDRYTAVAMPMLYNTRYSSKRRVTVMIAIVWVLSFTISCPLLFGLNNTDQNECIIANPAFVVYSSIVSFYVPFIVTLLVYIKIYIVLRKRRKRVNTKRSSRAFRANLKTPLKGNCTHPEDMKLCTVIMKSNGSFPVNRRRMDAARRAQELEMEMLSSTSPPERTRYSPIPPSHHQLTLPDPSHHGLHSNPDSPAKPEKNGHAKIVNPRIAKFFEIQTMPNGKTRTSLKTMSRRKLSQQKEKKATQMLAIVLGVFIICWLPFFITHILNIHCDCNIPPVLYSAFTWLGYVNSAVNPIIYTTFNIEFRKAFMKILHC
UniProt P35563, whole entry: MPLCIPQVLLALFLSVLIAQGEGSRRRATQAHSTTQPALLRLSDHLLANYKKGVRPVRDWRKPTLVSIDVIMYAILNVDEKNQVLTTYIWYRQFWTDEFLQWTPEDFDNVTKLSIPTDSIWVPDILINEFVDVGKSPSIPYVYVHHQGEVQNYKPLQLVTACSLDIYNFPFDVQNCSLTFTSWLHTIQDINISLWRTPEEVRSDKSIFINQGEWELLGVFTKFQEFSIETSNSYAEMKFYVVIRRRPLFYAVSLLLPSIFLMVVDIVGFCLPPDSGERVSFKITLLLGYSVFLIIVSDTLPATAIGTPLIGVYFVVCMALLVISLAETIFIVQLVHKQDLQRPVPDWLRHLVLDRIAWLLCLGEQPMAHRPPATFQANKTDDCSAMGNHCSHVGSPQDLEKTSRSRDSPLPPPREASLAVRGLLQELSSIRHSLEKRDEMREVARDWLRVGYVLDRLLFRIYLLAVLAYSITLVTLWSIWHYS
UniProt Q9JJ16: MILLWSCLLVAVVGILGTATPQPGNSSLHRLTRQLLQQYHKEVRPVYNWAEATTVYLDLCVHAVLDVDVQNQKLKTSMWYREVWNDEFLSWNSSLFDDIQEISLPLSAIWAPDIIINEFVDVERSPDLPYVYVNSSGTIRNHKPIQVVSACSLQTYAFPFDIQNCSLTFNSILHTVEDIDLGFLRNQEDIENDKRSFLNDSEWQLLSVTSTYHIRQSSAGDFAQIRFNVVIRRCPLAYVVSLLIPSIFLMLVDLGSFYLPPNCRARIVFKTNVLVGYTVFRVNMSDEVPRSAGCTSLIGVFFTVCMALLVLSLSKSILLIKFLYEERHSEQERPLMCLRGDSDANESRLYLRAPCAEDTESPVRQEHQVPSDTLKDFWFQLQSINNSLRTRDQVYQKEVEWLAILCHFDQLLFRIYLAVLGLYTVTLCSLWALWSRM

This passage reports Ki results from ChEMBL document CHEMBL1125444, “SC-53116: the first selective agonist at the newly identified serotonin 5-HT4 receptor subtype” (J Med Chem, 1992).

In one experiment the target is D(2) dopamine receptor (Rattus norvegicus, UniProt P61169). Put plainly: Binding affinity to dopamine receptor D2.
Experiment [1] has as its target Serotonin 3 (5-HT3) receptor (Rattus norvegicus, UniProt P35563+Q9JJ16). As to the kind of experiment: The ability to inhibit [3H]GR-65630 binding to 5-hydroxytryptamine 3 receptor in rat brain cortices. In kind it is tissue-based. In short, it runs like this:
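Membranes from male rat brain cortices incubated with [3H]GR65630 (0.2 nM) as radioligand. Nonspecific binding defined with 1 μM ICS-205930.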

Regarding `CCN(CC)CCNC(=O)c1cc(Cl)c(N)cc1OC` [METOCLOPRAMIDE], the Ki on D(2) dopamine receptor came out at 113 nM.

Take `NCCc1c[nH]c2ccc(O)cc12` [SEROTONIN]: the Ki in experiment [1] worked out at 390 nM.
